{"source": "patent US10092564B2", "about": "“Use of masitinib for treatment of an amyotrophic lateral sclerosis patient subpopulation” (AB SCIENCE, priority 2016, dated 2018)", "origin": "cited, not measured here", "system": "people with ALS", "conditions": "riluzole 100 mg, four randomized clinical trials, 1477 patients; cited from earlier work", "data": [{"smiles": "Nc1nc2ccc(OC(F)(F)F)cc2s1", "note": "[riluzole, 6-(trifluoromethoxy)benzothiazol-2-amine]", "values": [{"measurement": "prolongation of median survival with respect to participants taking placebo", "value": "2 to 3", "unit": "months"}]}]}
